scFv variants of Ab-14 (light chain) against a SARS-CoV-2 spike peptide

The measurements come from Engelhart et al. 2022 (doi:10.1038/s41597-022-01779-4) through the FLAb antibody collection.

The target is the same throughout: PDVDLGDISGINAS, from the HR2 region of SARS-CoV-2 spike.

Parent scFv Ab-14: VH joined to VL by the linker GGGGSGGGGSGGGGS. Changes lie in the light chain CDRs alone.
VH: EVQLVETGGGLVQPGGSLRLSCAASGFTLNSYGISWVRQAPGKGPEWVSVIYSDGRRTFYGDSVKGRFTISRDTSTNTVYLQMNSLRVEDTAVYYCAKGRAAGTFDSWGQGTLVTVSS
VL: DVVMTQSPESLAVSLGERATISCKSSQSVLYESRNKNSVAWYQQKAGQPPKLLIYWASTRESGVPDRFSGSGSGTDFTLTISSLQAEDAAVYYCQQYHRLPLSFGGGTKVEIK

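The parent was found by panning a naive human phage display library on the peptide. The library (AAYL50) carries one to three amino acid substitutions per variant, with no insertions or deletions. In AlphaSeq, yeast of one mating type display the scFv and yeast of the other type display the target. Binding brings cells together so that they mate, and sequencing counts the barcode pairs among the diploids. Read counts were normalised to the haploid input and turned into Kd by a linear fit to BCL2-family pairs of known affinity, for each replicate. There are three technical replicates.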

Changes read parent residue, position, new residue, counted from the first residue of the VL shown. Affinities are written as log10 Kd with Kd in nM; a lower number is a better binder. Replicates are averaged; those with no signal do not enter the mean. "ND" means that the variant was in the library but no mating with the target was seen in that replicate; the authors take this as a sign of poor binding, and no number exists. Nonspecific signal, from three strains lacking the peptide, appeared in 18% of pairings of library AAYL50, centred on 4.19 (5% of these signals below 2.99); values are not corrected for it. For each scFv, signals with the empty controls are counted beside the result, with their mean in brackets.

| changes | log10 Kd, replicates | mean log10 Kd (nM) | signal with controls |
|---|---|---|---|
| Q27Y A40S Y97D | 4.38 ND ND | 4.38 | 3/9 (3.80) |
| K24M Y97R L100F | 2.26 2.44 2.70 | 2.47 | 5/9 (4.92) |
| K24D A57M P101Q | 3.40 ND ND | 3.40 | 5/9 (4.57) |
| Q27D A40E S62M | ND ND ND | ND | 0/9 |
| S26C S58D L102K | ND 3.04 ND | 3.04 | 0/9 |
| S28Y R34T T59A | 4.61 ND ND | 4.61 | 0/9 |
| Q27R R99V S103L | 2.09 1.87 2.02 | 1.99 | 5/9 (5.06) |
| S58Q Q95F Q96L | 1.47 1.90 1.40 | 1.59 | 1/9 (3.71) |
| Y31P K36V R60P | ND ND ND | ND | 1/9 (2.61) |
| A40G | 3.90 ND 3.15 | 3.53 | 2/9 (3.94) |
| L30M | 0.71 0.99 0.87 | 0.86 | 9/9 (5.04) |
| S28E W56P H98Q | ND ND ND | ND | 1/9 (4.54) |
| R34C R60Y P101T | ND ND ND | ND | 0/9 |
| H98C P101E | 5.28 3.61 ND | 4.44 | 2/9 (4.39) |
| S25K S33E R99L | 2.72 2.26 2.20 | 2.39 | 2/9 (3.75) |
| S25T V29P R99E | 0.89 0.95 0.88 | 0.91 | 1/9 (3.53) |
| S25H S58Y H98F | ND ND ND | ND | 1/9 (2.89) |
| S25K R34E A40P | ND ND ND | ND | 4/9 (4.56) |
| E32D Q96V | 1.23 1.37 1.53 | 1.37 | 2/9 (4.82) |
| N35V E61W P101Y | 3.48 2.72 3.03 | 3.07 | 1/9 (3.88) |
| S26H R60N S62H | 4.85 3.33 3.17 | 3.78 | 3/9 (4.73) |
| N35C R99P | 4.69 ND 4.97 | 4.83 | 0/9 |
| S26Q K36V E61D | 0.86 1.11 1.17 | 1.05 | 1/9 (3.43) |
| K24M Q27E W56Q | -0.02 0.41 0.20 | 0.20 | 1/9 (3.71) |
| Y31W H98I S103Y | 2.40 2.93 3.73 | 3.02 | 0/9 |
| W56Y R60K E61W | 3.29 1.54 2.09 | 2.31 | 0/9 |
| K24F S58K | 0.21 1.48 1.42 | 1.04 | 1/9 (2.36) |
| S25Q W56G A57C | -0.08 0.28 0.12 | 0.11 | 5/9 (4.62) |
| E32L K36E L102M | 3.55 3.05 3.43 | 3.35 | 1/9 (4.14) |
| Q27F R34D | 1.01 1.02 1.00 | 1.01 | 5/9 (3.88) |
| K24M Q27D Q95I | 4.45 5.27 ND | 4.86 | 5/9 (4.15) |
| E32R S62G P101G | ND 3.45 4.20 | 3.83 | 4/9 (4.26) |
| Q27A L30K H98K | 1.22 1.28 1.52 | 1.34 | 0/9 |
| A40K Q95I R99K | ND 3.11 ND | 3.11 | 0/9 |
| S58V S62D Y97R | 3.13 2.15 2.47 | 2.58 | 0/9 |
| W56Q S62Y H98K | 0.59 1.03 0.69 | 0.77 | 0/9 |
| R60V Q96F R99M | 5.31 ND ND | 5.31 | 2/9 (4.50) |
| S25F Y97R L100Y | 4.94 5.21 ND | 5.08 | 6/9 (4.23) |
| A57E L100I S103K | ND ND ND | ND | 1/9 (3.21) |
| S26T A57C Y97C | ND ND ND | ND | 0/9 |
| A40S A57H L100T | ND 4.22 3.86 | 4.04 | 1/9 (5.24) |
| V29T S33L P101F | ND 3.92 4.99 | 4.46 | 3/9 (4.76) |
| N35I A40V P101V | 4.11 ND 4.72 | 4.41 | 1/9 (3.88) |
| K24C T59P R99T | ND 3.71 ND | 3.71 | 1/9 (4.35) |
| K36Q Y97N L102W | ND ND ND | ND | 3/9 (4.25) |
| S25C L30I K36T | 0.85 1.11 1.07 | 1.01 | 6/9 (4.56) |
| Q27I L30M T59W | 1.92 1.94 1.99 | 1.95 | 0/9 |
| S26T R34I Q96C | 2.79 2.28 2.62 | 2.56 | 2/9 (3.68) |
| A40P R99P S103R | ND ND ND | ND | 0/9 |